Results reported in patent US8969299B2, “Therapeutic agents for regulating serum phosphorus” (KAI Pharmaceuticals, Inc., priority 2011, dated 2015).

Experiments:
1K1C model animals = experiment: plasma PTH reduction after 30-minute IV infusion in 1K1C model animals; format: in vivo; settings: 3 mg/kg
From the text: These compounds include (i) Ac-crrrr-NH2 (SEQ ID NO:4), (ii) Ac-crrrrr-NH2 (SEQ ID NO:5), (iii) Ac-crrrrrr-NH2 (SEQ ID NO:6), and (iv) Ac-crrrrrrr-NH2 (SEQ ID NO:7). In previous studies, the compounds identified as SEQ ID NO:4, SEQ ID NO:5, SEQ ID NO:6 and SEQ ID NO:7 were each administered by a 30-minute IV infusion to 1K1C model animals and effected a reduction in plasma PTH levels as a percent of the pre-dosing (baseline) level. […] These latter two compounds produced a mean PTH reduction of ˜40% and 60% at the 24 hour time point, respectively. It should be noted that the compounds in this study were administered at the same mg/kg dose but, due to differences in molecular weight, a different number of moles of each compound was actually dosed.

human CaSR = target: T1, human CaSR (Homo sapiens, UniProt P41180); experiment: IP1 production in HEK293 cells that express the human CaSR; format: cell-based; settings: HEK 293 cells
T1 construct: expressed in transfected cells; host or cells: HEK293
T1 sequence (P41180 20-1078): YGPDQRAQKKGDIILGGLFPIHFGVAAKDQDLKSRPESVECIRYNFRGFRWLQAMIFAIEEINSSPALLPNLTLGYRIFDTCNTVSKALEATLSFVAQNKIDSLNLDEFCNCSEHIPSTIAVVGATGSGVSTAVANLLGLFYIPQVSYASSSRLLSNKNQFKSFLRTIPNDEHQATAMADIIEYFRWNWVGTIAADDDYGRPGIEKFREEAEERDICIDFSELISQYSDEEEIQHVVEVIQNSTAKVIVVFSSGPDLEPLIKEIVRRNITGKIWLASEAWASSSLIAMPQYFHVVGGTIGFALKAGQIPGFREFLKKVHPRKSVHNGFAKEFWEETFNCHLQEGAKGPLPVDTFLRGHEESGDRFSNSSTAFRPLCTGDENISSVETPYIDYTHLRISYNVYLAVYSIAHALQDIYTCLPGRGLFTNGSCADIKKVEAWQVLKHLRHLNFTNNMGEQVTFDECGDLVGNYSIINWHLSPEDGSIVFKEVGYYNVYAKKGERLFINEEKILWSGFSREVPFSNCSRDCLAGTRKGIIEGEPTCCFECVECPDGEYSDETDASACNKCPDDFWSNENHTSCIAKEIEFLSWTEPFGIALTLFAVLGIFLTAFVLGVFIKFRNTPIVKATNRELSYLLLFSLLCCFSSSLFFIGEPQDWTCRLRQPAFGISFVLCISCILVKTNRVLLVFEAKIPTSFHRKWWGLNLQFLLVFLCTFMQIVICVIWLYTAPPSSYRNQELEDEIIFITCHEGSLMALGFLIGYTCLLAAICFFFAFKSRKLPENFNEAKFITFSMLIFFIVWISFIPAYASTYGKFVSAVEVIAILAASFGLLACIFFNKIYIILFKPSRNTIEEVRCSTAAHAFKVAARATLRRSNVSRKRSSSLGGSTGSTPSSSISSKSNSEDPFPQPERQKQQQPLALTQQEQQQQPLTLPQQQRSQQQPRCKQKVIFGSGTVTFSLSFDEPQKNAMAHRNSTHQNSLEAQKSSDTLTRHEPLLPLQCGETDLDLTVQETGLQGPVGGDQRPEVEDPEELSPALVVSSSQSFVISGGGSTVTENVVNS

| decrease in potency relative to Ac-carrrar-NH2 (SEQ ID NO:26) (human CaSR) [fold] | SMILES | effect on plasma PTH (1K1C model animals) |
| --- | --- | --- |
| – | CC(=O)N[C@H](CS)C(=O)N[C@H](CCCNC(=N)N)C(=O)N[C@H](CCCNC(=N)N)C(=O)N[C@H](CCCNC(=N)N)C(=O)N[C@H](CCCNC(=N)N)C(N)=O [SEQ ID NO: 4, Ac-crrrr-NH2] | significant drop in plasma PTH |
| < 8 | CC(=O)N[C@H](CS)C(=O)NCC(=O)N[C@H](CCCNC(=N)N)C(=O)N[C@H](CCCNC(=N)N)C(=O)N[C@H](CCCNC(=N)N)C(=O)NCC(=O)N[C@H](CCCNC(=N)N)C(N)=O [SEQ ID NO: 42, Ac-cGrrrGr-NH2] | – |
